Laboratory results as given in PubChem BioAssay (Tox21).
Several values for one entry are separate records, joined by “and”; a condition that tells them apart may be missing. Equal values may be shown once. The entries are a selection whose mix differs from that of the whole data set. Activity calls are given as the source filed them. The call rests on the fitted dose curve; in most records, active means well fitted curve in the direction sought with a large enough effect in the repeat runs; inconclusive means weak or mixed curves; inactive means flat fitted curve, though single readings scatter.

Experiment: qHTS assay to test for compound auto fluorescence at 460 nm (blue) in HEK293 cell free culture (AID 720681)
Conditions: cell-free medium, autofluorescence 405/460 nm (blue); at 18.6 µM (top of the series)
Source text: U.S. Tox21 Program National Center for Advancing Translational Sciences [NCATS] NIH Chemical Genomics Center [NCGC] U.S. Environmental Protection Agency [EPA] National Institutes of Environmental Health Sciences [NIEHS] National Toxicology Program [NTP] U.S. Food and Drug Administration [FDA] Tox21 Assay Overview: Compound auto fluorescence often interferes with screening of the compound library against various biological targets and signaling pathways. Some of these compounds may have fluorophoric properties. Such properties may interfere with the assay outputs resulting in false positives and/or negatives. To decrease such complications and ensure the compound activities are relevant in terms of biological response, the Tox21 10K compound library was screened for auto fluorescence. From the fluorophores used as reporter signals in our screening assays, the auto fluorescence equivalencies of compounds against three fluorophores have been evaluated: Triamterene, Fluorescein and Rose Bengal sodium for blue, green and red fluorescence, respectively. The fluorescence intensities were measured using Excitation/Emission wavelengths at 405/460nm, 485/535nm and 540/590nm for blue, green and red labels, respectively. This assay includes the blue fluorescence data.
Tox21 Assay Protocol Summary: 5 uL of culture medium (DMEM containing 10% FBS) per well was dispensed into black wall/clear bottom 1536-well plates using a Multidrop Combi Dispenser (ThermoFisher Scientific, Waltham, MA). After 23 nL compound or DMSO vehicle was transferred into assay plate by a pintool work station (Kalypsys, San Diego, CA), fluorescence intensities in the assay plates were measured by an Envision (PerkinElmer, Shelton, CT) plate reader using three labels for measuring blue, green and red fluorescence at […] 460, 535 and 590nm respectively.
On the % scale 0 is the no-effect control and ±100 the full control effect.

SMILES	fluorescence, % of fluorescent control
C/C1=C2N=C(/C=C3N=C(/C(C)=C4\[N-][C@@](C)([C@@H]5N=C1[C@](C)(CCC(=O)NC[C@@H](C)OP(=O)([O-])O[C@H]1[C@@H](O)[C@@H](n6cnc7cc(C)c(C)cc76)O[C@@H]1CO)[C@H]5CC(N)=O)[C@@](C)(CC(N)=O)[C@@H]4CCC(N)=O)[C@@](C)(CC(N)=O)[C@@H]\3CCC(N)=O)C(C)(C)[C@@H]/2CCC(N)=O.[C-]#N.[Co+3]	inactive: 0.0919%

Same assay, conditions: cell-free medium, autofluorescence 405/460 nm (blue); at 46 µM (top of the series)

SMILES	fluorescence, % of fluorescent control
CC(C)N(CCCl)C(C)C	inactive: 0.0931%
OCCSCCO	inactive: -0.0207%
O=[N+]([O-])c1cccc([N+](=O)[O-])c1	inactive: -0.054%
CCOP(=O)(CC)Oc1ccc([N+](=O)[O-])cc1 (stereo not given)	inactive: 0.0293%
O=[N+]([O-])[O-].[NH4+]	inactive: 0.0501%
CC(C)OP(=O)(F)OC(C)C	inactive: 0.045%
CN(C)CCS	inactive: -0.0631%
O=[N+]([O-])OCC(CO[N+](=O)[O-])(CO[N+](=O)[O-])CO[N+](=O)[O-]	inactive: 0.0372%

Same assay, conditions: cell-free medium, autofluorescence 405/460 nm (blue); at 91.3 µM (top of the series)

SMILES	fluorescence, % of fluorescent control
COP(C)(=O)OC	inactive: 0.06%
Cc1cccc([N+](=O)[O-])c1[N+](=O)[O-]	inactive: -0.325%
O=[N+]([O-])[O-].[NH4+]	inactive: 0.0658% and inactive: 0.14%
CC(C)OP(C)(=O)OC(C)C	inactive: -0.185% and inactive: -0.168%
Cc1ccc([N+](=O)[O-])c([N+](=O)[O-])c1	inactive: 0.0322%
[NH4+].[O-][Cl+3]([O-])([O-])[O-]	inactive: -0.0885%
CC(C)N(CCO)C(C)C	inactive: 0.148%
Cc1c([N+](=O)[O-])cccc1[N+](=O)[O-]	inactive: -0.633% and inactive: -0.0383%
Cc1ccc([N+](=O)[O-])cc1[N+](=O)[O-]	inactive: -0.107% and inactive: -0.0083%
CCOP(=O)(CC)OCC	inactive: 0.0195%
O=[N+]([O-])OCC(CO[N+](=O)[O-])(CO[N+](=O)[O-])CO[N+](=O)[O-]	inactive: -0.0865%
COc1ccc([N+](=O)[O-])cc1[N+](=O)[O-]	inactive: -0.0213%
CP(=O)(O)OCCC[Si](O)(O)O	inactive: 0.101%

Same assay, conditions: cell-free medium, autofluorescence 405/460 nm (blue); at 95.7 µM (top of the series)

SMILES	fluorescence, % of fluorescent control
COP(C)(=O)OC	inactive: -0.269%
OCCSCCO	inactive: 0.0198%
O=[N+]([O-])c1cccc([N+](=O)[O-])c1	inactive: -0.458%
Cc1ccc([N+](=O)[O-])c([N+](=O)[O-])c1	inactive: -0.145%
[NH4+].[O-][Cl+3]([O-])([O-])[O-]	inactive: 0.253%
Nc1cc([N+](=O)[O-])cc([N+](=O)[O-])c1O	inactive: -1.06%
N=C(N)N[N+](=O)[O-]	inactive: -0.213%
CCN(CC)CCCl	inactive: -0.118%
